CFTR F508del cor: CFTR F508del correction in bronchial cells; CFBE cells, YFP halide quenching; stimulated with forskolin plus potentiator P3; % fluorescence drop versus neutral controls; activity (quench increase), % at 7.58 µM; hit rate 0.36% among 350,000; AID 720511;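 active = mean added fluorescence quench of at least 8% versus neutral control, with both replicates also reaching 8%; inconclusive = only one of the mean or replicate conditions met; inactive = mean below 8% and not both replicates reaching 8%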;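 also: cells transiently co-express mutant CFTR-F508del with the halide-sensitive YFP; corrector assay measuring rescue of mutant channel to the surface after 24 h compound exposure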
EWS-Fli block: inhibitors of EWS/Fli oncoprotein transcriptional activity; A673 NR0B1-luciferase reporter, viability-normalised; inhibition, % at 12.6 µM; hit rate 0.67% among 350,000;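 active = mean inhibition of at least 50% after viability correction, with every replicate also passing that limit; inconclusive = mean reaches 50% but only one of two replicates passes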;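 also: firefly luciferase signal divided by Alamar Blue viability fluorescence both relative to DMSO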
miR-122 sensor: blocks miR-122 activity in Huh7 sensor cells; Huh7 miR-122 Renilla luciferase sensor, 48 h; neutral wells = 0, positive control = 100; activation (reporter increase), % at 12.5 µM; hit rate 0.3% among 340,000;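 active = mean replicate activation score at least 90 and every replicate individually at or above 90; inconclusive = only one of the two criteria met; inactive = neither criterion met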;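 also: higher luciferase means less miR-122 activity so hits act as miR-122 inhibitors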
PglD inh: blocks C. jejuni PglD acetyltransferase activity; AID 602405; purified PglD enzyme, DTNB colorimetric CoA detection; hit rate 0.098% among 360,000; inhibition, % at 12.5 µM; in the data active = inhibition above about 16%, passing the limit was not always enough; inconclusive = no clear call, values can overlap the other calls
Yeast UUG start: yeast start codon fidelity modulation; activity score, % at 18.7 µM; actives 0.13% (n = 350,000); S. cerevisiae UUG-firefly luciferase reporter, luminescence/redox ratio; AID 602363;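 active means replicate mean at a twofold rise or more, about +100% in these data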;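 further: firefly luciferase made from a UUG start codon reports start codon fidelity; reporter light over untreated wells divided by growth signal over untreated wells; some hits fall short of that in this replicate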
LGR2 antag: Drosophila LGR2 receptor signaling inhibition; HEK293 LGR2, CRE-luciferase, bursicon-stimulated, 4 h; inhibition, % at 9.99 µM; hit rate 0.35% among 380,000;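 active = drop in luminescence signal, shown as inhibition above about 50% in the replicate tests, limit read from the data, passing the limit was not always enough; inconclusive = probably only some replicates passing the limit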;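 also: agonist challenge used bursicon conditioned medium at about half maximal strength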
Hits are given with their value; n = inactive; u = inconclusive; x = no result. An excerpt weighted towards active compounds, which were near 1.3% of everything screened.

SMILES	CFTR F508del cor	EWS-Fli block	miR-122 sensor	PglD inh	Yeast UUG start	LGR2 antag
O=C(NCCc1c[nH]c2ccccc12)OCCCCOC(=O)NCCc1c[nH]c2ccccc12	n	n	n	n	n	83.9
O=C(O)/C=C1\CCCc2ccccc2C1O (configuration not stated)	n	n	n	n	n	n
Cc1ccc(NC(=O)C(=O)Nc2ccccn2)cc1	n	u	n	n	n	92.9
O=C(NC(=O)c1ccccc1)Nc1ccccn1	n	x	n	n	n	88.6
COc1ccc(C(=O)NC(=O)Nc2cc(C)ccn2)cc1	n	72.7	n	n	n	74.5
O=C(Nc1ccccn1)c1ccc(C(=O)c2ccccc2)cc1	n	n	n	n	n	n
COc1ccc(N/C=C/C(=O)c2ccccc2)cc1	n	n	x	n	n	65.3
Cc1ccc(S(=O)(=O)CC(=O)Nc2ccccn2)cc1	n	n	n	n	n	n
COc1ccc(N/C=C\C(=O)c2ccc3ccccc3c2)cc1	n	n	n	n	n	n
C[C@H]1CN([C@@H](C)CO)C(=O)c2cc(NC(=O)CCC(F)(F)F)ccc2O[C@@H]1CN(C)Cc1ccc(-c2ccccc2)cc1	n	n	n	n	n	n
CC(C)NC(=O)CSc1nc(-c2ccccc2)cs1	n	n	x	x	x	n
COc1cccc(S(=O)(=O)N(C)C[C@H]2Oc3ncc(C#CC(C)C)cc3C(=O)N([C@H](C)CO)C[C@@H]2C)c1	x	n	n	n	n	n
O=C(C[C@H]1C=C[C@H](NS(=O)(=O)c2ccccc2)[C@H](CO)O1)NCc1ccccc1F	n	n	x	n	n	n
COc1ccc(NC(=O)CS(=O)(=O)c2cccc(Cl)c2)cc1	x	n	x	n	n	n
COc1ccc(C(=O)/C=C/Nc2cc(C)ccn2)cc1	n	n	x	n	n	74.2
CCOc1ccc(NC(=O)/C=C/c2ccccc2)c([N+](=O)[O-])c1	x	n	x	x	x	n
CSc1ccc(NC(=O)Nc2cc(C)ccn2)cc1	n	52.0	n	n	n	58.3
CCOc1ccc(N/C=C/C(=O)c2ccccc2)c([N+](=O)[O-])c1	n	59.9	x	x	x	90.8
Cc1ccc2oc(=O)n(CC(=O)OCCC(C)C)c2c1	n	n	n	n	n	n
CCNC(=O)C[C@H]1C=C[C@@H](NC(=O)NC2CCCCC2)[C@H](CO)O1	n	n	x	n	n	n
CCNC(=O)C[C@@H]1C=C[C@@H](NC(=O)NC2CCCCC2)[C@H](CO)O1	8.8	n	x	n	n	n
CCCCN(C(=O)c1ccccc1Br)C1CCS(=O)(=O)C1 (configuration not stated)	n	n	x	n	n	n
Nc1nc(CCl)nc(Nc2ccccc2)n1	n	n	x	x	x	n
COc1ccccc1Nc1nc(N)nc(CCl)n1	n	57.2	n	n	n	n
COc1cccc(Nc2nc(N)nc(CCl)n2)c1	n	58.6	n	n	n	n
SMILES	CFTR F508del cor	EWS-Fli block	miR-122 sensor	PglD inh	Yeast UUG start	LGR2 antag
Cc1ccc(Nc2nc(N)nc(CCl)n2)cc1	n	71.1	n	n	n	n
COc1ccc(C(=O)OCc2nc(N)nc(Nc3ccccc3C)n2)cc1OC	8.4	n	x	x	x	n
COc1ccccc1CNCC(=O)Nc1ccccc1-n1cccc1	n	n	n	x	x	n
CC(C)Oc1ccc(F)cc1-c1cc(C(=O)NCc2cccs2)[nH]n1	n	n	n	n	n	n
CC(=O)N(C)C[C@H]1Oc2ncc(C#Cc3cccnc3)cc2C(=O)N([C@H](C)CO)C[C@@H]1C	n	n	n	n	n	n
Cc1ccc(NC(=O)c2ccc(Br)o2)c([N+](=O)[O-])c1	n	n	n	n	n	n
NS(=O)(=O)c1ccc(NNC(=O)c2ccc(Br)o2)c([N+](=O)[O-])c1	8.0	n	n	n	n	n
Cc1noc(C)c1NC(=O)N1C[C@H](O)COC[C@@H]2O[C@@H](CC(=O)NCC3CC3)CC[C@H]21	n	n	n	n	n	n
CN1/C(=C\C=C2/SC(=S)NC2=O)C(C)(C)c2ccccc21	25.1	n	n	x	x	n
CCN1C(=O)/C(=C/C=C2\C=CN(CC)c3ccccc32)SC1=S	x	x	n	n	n	n
CCCN1C(=O)/C(=C\C=C2\N(CC)c3ccccc3C2(C)C)SC1=S	16.3	n	x	n	n	n
CN1/C(=C\C=N\O)C(C)(C)c2ccccc21	x	n	n	n	n	n
CN1/C(=C\C=C2/C(=O)Oc3ccccc3C2=O)C(C)(C)c2ccccc21	n	n	x	x	x	n
CN1C(=CC=C2C=C(I)C(=O)C(I)=C2)C(C)(C)c2ccccc21	9.6	n	n	n	n	n
CN(C)Cc1c(C(=O)N/N=C/c2cccc(OCc3ccc(F)cc3)c2)nnn1-c1nonc1N	n	n	x	n	n	n
O=C(COc1ccc(S(=O)(=O)N2CCOCC2)cc1)NCc1ccco1	n	n	n	n	n	n
CCN(Cc1ccccc1)C(=O)c1[nH]c2ccc(OC)cc2c1C	n	n	125.2	n	n	n
COc1ccc2[nH]c(C(=O)N(C)Cc3ccccc3)c(C)c2c1	n	n	n	n	n	n
Cc1ccc(NC(=O)Cc2cn(C)c3ccccc23)cc1F	x	n	321.4	n	n	n
O=C(Nc1ccncc1)Nc1cccc(Cl)c1	n	n	x	n	n	n
O=C(Nc1cccc(C2=NCCN2)c1)Nc1cccc(C2=NCCN2)c1	8.3	n	n	n	n	n
Cc1ccc(Cc2c(-c3ccc(C)cc3)nc3c(C)cc(Br)cn23)cc1	10.8	n	n	n	n	x
N#Cc1ccc(-c2ccc3c(c2)[C@@H]2[C@@H](CCN2C(=O)C2CCCCC2)[C@@H](CO)N3)cc1	n	n	n	n	n	n
Cc1ccc(C)c(S(=O)(=O)NCC(c2ccc3c(c2)OCO3)N2CCOCC2)c1 (configuration not stated)	n	n	100.9	n	n	n
Cc1cc(F)ccc1S(=O)(=O)NCC(c1ccc2c(c1)OCO2)N1CCOCC1 (configuration not stated)	n	n	x	n	n	n
SMILES	CFTR F508del cor	EWS-Fli block	miR-122 sensor	PglD inh	Yeast UUG start	LGR2 antag
O=[N+]([O-])c1ccc(S(=O)Cc2ccccc2)c([N+](=O)[O-])c1 (configuration not stated)	n	n	x	x	x	60.1
Nc1ncnc2c(C3OC(CO)C(O)C3O)scc12 (configuration not stated)	n	n	n	x	x	98.0
Nc1ncnc2c1ncn2C1O[C@H](CO)[C@@H](O)[C@@H]1O (some centres not stated)	n	n	n	n	n	n
COc1cccc(C2=Nn3c(nnc3-c3ccccc3O)SC2)c1	x	x	x	n	n	x
C[n+]1c2n(c3ccccc31)N=C(c1cc(C(C)(C)C)c(O)c(C(C)(C)C)c1)CS2	x	n	n	x	x	85.9
Cn1nc(C(=O)Nc2ccc3c(c2)OCCO3)cc1C(=O)O	x	x	n	n	n	x
Cc1cc(C)c2c(n1)sc1c(N3CCN(C)CC3)ncnc12	n	n	x	x	x	n
C=CCn1c(C)cc(C(=O)CSc2nc3ccccc3[nH]2)c1C	x	x	n	x	x	59.5
Cc1c(Cl)sn(-c2ccc(Cl)cc2)c1=O	n	64.6	n	n	n	n
COc1ccc(/C=N/NC(=S)Nc2cccc(C(=O)O)c2)cc1OC	x	n	x	x	x	82.2
